This passage reports water solubility results from patent US11986790B2, “Method for preparing microcapsules” (LG Household & Health Care Ltd., priority 2018, dated 2024).

The data set in a line: Water solubility of acrylic monomers. Type of data set: physicochemical. The text has this:
Specific examples of such acrylic monomers may include one or more selected from the group consisting of dipropyleneglycol diacrylate, diethyleneglycol diacrylate, and tetraethyleneglycol dimethacrylate, as shown in the following Table 1.

Regarding Diethyleneglycole diacrylate, the water solubility reads like this: (Table 1, room temperature of 25° C.) 10-50 g/L; (stated in the example text for the monomer used) “about 25 g/L”.
